Measurements as given in paper PMC10688980, “Hepatitis B virus infection disrupts homologous recombination in hepatocellular carcinoma by stabilizing resection inhibitor ADRM1” (The Journal of Clinical Investigation, 2023).

Molecular target: T1, 6xHis-WDR70 (112–654 aa) (UniProt Q9NW82 112-654)
T1 construct: also called recombinant WDR70; purified WDR70
T1 sequence (looked up): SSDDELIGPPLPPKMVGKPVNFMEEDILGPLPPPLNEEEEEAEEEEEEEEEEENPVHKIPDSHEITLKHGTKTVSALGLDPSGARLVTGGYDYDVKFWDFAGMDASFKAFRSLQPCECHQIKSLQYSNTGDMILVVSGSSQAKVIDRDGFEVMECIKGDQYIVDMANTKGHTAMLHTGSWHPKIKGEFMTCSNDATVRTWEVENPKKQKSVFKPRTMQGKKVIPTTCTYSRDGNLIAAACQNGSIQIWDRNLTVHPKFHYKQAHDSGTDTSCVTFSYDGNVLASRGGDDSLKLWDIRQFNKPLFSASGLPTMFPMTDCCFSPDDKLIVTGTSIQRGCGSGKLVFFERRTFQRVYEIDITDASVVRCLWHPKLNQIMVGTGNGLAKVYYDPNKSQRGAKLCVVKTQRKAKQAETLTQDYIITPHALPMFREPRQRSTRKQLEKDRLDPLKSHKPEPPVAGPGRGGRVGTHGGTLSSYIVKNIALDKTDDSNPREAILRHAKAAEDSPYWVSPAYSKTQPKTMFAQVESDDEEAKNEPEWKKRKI
Assay: pull-down; purified recombinant His-WDR70 and Strep-PSMD5
Settings: both partners purified

B1: Strep-PSMD5^Hsm3 (recombinant) (natural protein, UniProt Q16401 1-504, looked up)
chain: MAAQALALLREVARLEAPLEELRALHSVLQAVPLNELRQQAAELRLGPLFSLLNENHREKTTLCVSILERLLQAMEPVHVARNLRVDLQRGLIHPDDSVKILTLSQIGRIVENSDAVTEILNNAELLKQIVYCIGGENLSVAKAAIKSLSRISLTQAGLEALFESNLLDDLKSVMKTNDIVRYRVYELIIEISSVSPESLNYCTTSGLVTQLLRELTGEDVLVRATCIEMVTSLAYTHHGRQYLAQEGVIDQISNIIVGADSDPFSSFYLPGFVKFFGNLAVMDSPQQICERYPIFVEKVFEMIESQDPTMIGVAVDTVGILGSNVEGKQVLQKTGTRFERLLMRIGHQSKNAPVELKIRCLDAISSLLYLPPEQQTDDLLRMTESWFSSLSRDPLELFRGISSQPFPELHCAALKVFTAIANQPWAQKLMFNSPGFVEYVVDRSVEHDKASKDAKYELVKALANSKTIAEIFGNPNYLRLRTYLSEGPYYVKPVSTTAVEGAE
notes: also called recombinant PSMD5^Hsm3; His-PSMD5^Hsm3; source: E. coli BL21, purified (MagStrep XT beads, eluted with biotin)
binding result: binds
